## Measured melting point values of organic chemicals

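The numbers are reported measurements, compiled and curated for the OPERA QSAR suite. One number stands for a compound and property, with no spread given. Method, purity and exact conditions of the single measurements are not given. The measured form (salt, isomer or mixture) is not always the one drawn. Unmarked limits or estimates from the upstream databases cannot be ruled out.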

Melting points are in °C.
"–" marks a cell with nothing listed here.
"via" names the databases from which the curators took the value.

SMILES | name | mp (°C) | via
Cc1n[nH]c(C)c1[N+](=O)[O-] | Pyrazole, 3,5-dimethyl-4-nitro- | 122 | OCHEM
CS(=O)(=O)Nc1cccc(C#N)c1 | N-(3-cyanophenyl)methanesulfonamide | 155 | OCHEM
O=C(O)c1c[nH]c(=S)n1-c1ccccc1 | – | 246 | OCHEM
O=C(O)COc1ccc2ccccc2c1Br | [(1-bromo-2-naphthyl)oxy]acetic acid | 159 | OCHEM
CC(=O)OC1CC2CC1C1CC=CC21 (centres undefined) | Jasmacyclen | -10.3 | eChemPortal
NNc1ncnc2c1oc1ccccc12 | 4-hydrazino[1]benzofuro[3,2-d]pyrimidine | 233 | OCHEM
Cc1cc(C)c(C(=O)CCl)c(C)c1 | 2-Chloro-1-(2,4,6-trimethylphenyl)ethan-1-one | 69 | OCHEM
CCCCCCCCCCOC(=O)C(CC)CCCC (centres undefined) | Decyl 2-ethylhexanoate | -18 | eChemPortal
O=C(C[NH+](Cc1ccccc1)Cc1ccccc1)c1ccc(O)c(O)c1.[Cl-] | – | 200.5 | eChemPortal
C1CCC(NC2=NCCCS2)CC1 | Cyclohexyl-(5,6-dihydro-4H-[1,3]thiazin-2-yl)-amine | 113 | OCHEM
Nc1ccccc1OCCOc1ccccc1N | 2,2'-[Ethane-1,2-diylbis(oxy)]dianiline | 132 | eChemPortal
Cc1cc(C)c(N)c(I)c1 | 2-Iodo-4,6-dimethylaniline | 64.5 | OCHEM
NNC(=O)COc1ccc(Br)cc1 | 2-(4-bromophenoxy)acetohydrazide | 171 | OCHEM
Cc1cc(C(=O)O)cc(S(=O)(=O)Cl)c1C | 3-chlorosulfonyl-4,5-dimethyl-benzoic Acid | 172 | OCHEM
Nc1ncnc2sc3c(c12)CCCC3 | 5,6,7,8-Tetrahydro[1]benzothieno[2,3-d]pyrimidin-4-amine | 240 | OCHEM
O=C(O)c1cccc(S(=O)(=O)N2CCCCC2)c1 | 3-(Piperidine-1-sulfonyl)benzoic acid | 179 | OCHEM
CCN(CC)S(=O)(=O)c1ccc(N)c(N)c1 | 3,4-Diamino-N,N-diethyl-benzenesulfonamide | 125 | OCHEM
CCCCCCCC/C=C/CCCCCCCC(=O)OCC(CO)(CO)COC(=O)CCCCCCC/C=C/CCCCCCCC | – | -7.5 | eChemPortal
ClCc1ncc(-c2ccccc2)o1 | 2-(chloromethyl)-5-phenyl-1,3-oxazole | 64 | OCHEM
O=Cc1ccc(OCc2cccc(F)c2)cc1 | 4-[(3-Fluorophenyl)methoxy]benzaldehyde | 46 | OCHEM
O=Cc1ccc(-c2cccc(Br)c2)o1 | 5-(3-bromophenyl)-2-furaldehyde | 100 | OCHEM
O=C(Nc1ccc2ccccc2c1)C(F)(F)C(F)(F)C(F)(F)F | (2-Naphthalenyl)perfluorobutanamide | 122.5 | ChemicalBook
O=C(O)C(O)c1ccccc1F (centres undefined) | 2-Fluoromandelic acid | 114.5 | OCHEM
Cc1ccc(NC(=O)c2ccccc2)cc1N | N-(3-amino-4-methylphenyl)benzamide | 145 | OCHEM
CCN(CC)c1ccc(N=Nc2c(C#N)cc([N+](=O)[O-])cc2C#N)c(NC(C)=O)c1 | – | 252.4 | eChemPortal
COC1=CCC2=C(CCC3C2CCC2(C)C3CCC2(O)C#N)C1 (centres undefined) | 17-Hydroxy-3-methoxyestra-2,5(10)-diene-17-carbonitrile | 179.7 | eChemPortal
Nc1cc(-c2ccc(Cl)cc2)nn1-c1ccccc1 | 3-(4-Chlorophenyl)-1-phenyl-1H-pyrazol-5-amine | 192 | OCHEM
COc1ccc(C(NC(=O)CCl)c2ccc(OC)cc2)cc1 | N-[bis(4-methoxyphenyl)methyl]-2-chloroacetamide | 119 | OCHEM
COc1cccc(C(=O)Cl)c1C | Benzoyl chloride, 3-methoxy-2-methyl- | 48.75 | eChemPortal
COc1cccc(CNC(=O)CCl)c1 | 2-Chloro-N-[(3-methoxyphenyl)methyl]acetamide | 102 | OCHEM
COc1ccc(C=O)cc1OCC(C)C | 4-methoxy-3-(2-methylpropoxy)benzaldehyde | 41 | OCHEM
CCCCCCCC/C=C\CCCCCCCC(=O)OCCC(C)C | 3-Methylbutyl (9Z)-9-octadecenoate | -9 | eChemPortal
CCOc1cc(C#N)cc(Br)c1O | 3-bromo-5-ethoxy-4-hydroxybenzonitrile | 141 | OCHEM
O=C(O)CCn1ccc2ccccc21 | 1H-Indole-1-propionic acid | 50 | OCHEM
CCOc1ccc(OC(C)(C)C(=O)O)cc1 | 2-(4-ethoxyphenoxy)-2-methylpropanoic acid | 67 | OCHEM
Nc1nc(-c2ccc(Oc3ccccc3)cc2)cs1 | 4-(4-Phenoxy-phenyl)-thiazol-2-ylamine | 196 | OCHEM
CC1=CCC(=C(C)C)CC1 | Terpinolene | 2.5 | OCHEM, PubChem, eChemPortal

Again, the 5 entries with the lowest mp:

SMILES | name | mp (°C) | via
CCCCCCCCCCOC(=O)C(CC)CCCC (centres undefined) | Decyl 2-ethylhexanoate | -18 | eChemPortal
CC(=O)OC1CC2CC1C1CC=CC21 (centres undefined) | Jasmacyclen | -10.3 | eChemPortal
CCCCCCCC/C=C\CCCCCCCC(=O)OCCC(C)C | 3-Methylbutyl (9Z)-9-octadecenoate | -9 | eChemPortal
CCCCCCCC/C=C/CCCCCCCC(=O)OCC(CO)(CO)COC(=O)CCCCCCC/C=C/CCCCCCCC | – | -7.5 | eChemPortal
CC1=CCC(=C(C)C)CC1 | Terpinolene | 2.5 | OCHEM, PubChem, eChemPortal

Data: OPERA 2.9 data sets, kmansouri/OPERA on GitHub.